What is called Km is the concentration of substrate that gives half-maximal velocity.

This data set relates to C[S+](C)CC[C@@H](O)[C@@H](O)C(=O)[O-]. The data set can be described thus: purified protein. The note with it: pH 7.5; 30.0 °C.

For BurG (Burkholderia thailandensis E264), the Michaelis constant (Km) turned out to be 110 ± 20 µM.

The values above are taken from article PMC9359912, “Pathogenic bacteria remodel central metabolic enzyme to build a cyclopropanol warhead” (Nature Chemistry, 2022).
